Earlier results, collected in PMC10692163, “Structure-based discovery of novel P-glycoprotein inhibitors targeting the nucleotide binding domains” (Scientific Reports, 2023).

Test system: P-gp nucleotide binding domain
Details: Table S1, supplement reference list, ref [4]; cited from earlier work

With `COc1cc([C@H]2Oc3cc(-c4oc5cc(O)cc(O)c5c(=O)c4O)ccc3O[C@@H]2CO)ccc1O` [Dehydrodilybin] as the molecule, how does the “Class (known P-gp NBD inhibitor)” value read?
Its value is “Marginal”.
